# Binding of CDR-mutated scFvs to a peptide of the spike HR2 region

Binding partner: SARS-CoV-2 spike HR2 peptide, sequence PDVDLGDISGINAS.

Each scFv is VH, the linker GGGGSGGGGSGGGGS, VL, as in the parent Ab-14, and differs from it in the CDRs of the light chain only.
VH: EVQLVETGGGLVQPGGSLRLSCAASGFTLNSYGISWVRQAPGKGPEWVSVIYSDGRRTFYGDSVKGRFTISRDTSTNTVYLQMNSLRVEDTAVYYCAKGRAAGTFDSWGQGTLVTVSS
VL: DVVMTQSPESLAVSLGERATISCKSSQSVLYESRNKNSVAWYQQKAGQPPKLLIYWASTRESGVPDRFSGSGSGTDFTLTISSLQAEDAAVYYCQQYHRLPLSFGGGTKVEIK

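The parent was found by panning a naive human phage display library on the peptide. Library AAYL50 holds single substitutions and randomly drawn double and triple substitutions in the CDRs. The assay is AlphaSeq: two haploid yeast populations carry antibody and antigen on their surface. The frequency of each diploid, read from paired DNA barcodes, reflects how well the two displayed proteins bind. Scores were corrected for input abundance and mapped to Kd with protein pairs of known affinity run in the same pool. The assay was run in three technical replicates.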

Each variant is given by its three light chain CDRs, as the data file delimits them; those of the parent are KSSQSVLYESRNKNSVA, WASTRES, QQYHRLPLS. Every variant below is changed at S58 of the VL (sequential numbering). Kd is apparent (estimated from mating counts) and averaged on the log scale over replicates with a signal. Smaller is tighter. "nd" marks a missing value. The strain was present, yet no cells mated with the target were sequenced in any replicate, which points to weak or no binding. Order: sorted from the lowest average up, undetected variants last. As a blank, each scFv also met three strains without target: over library AAYL50, 18% of these pairings were detected, typically at 15 µM and seldom below 970 nM. Also given: how often the same scFv was detected with the empty control strains.

For KSSQSVLYPSRNKNSVA / WQDTRES / QQYHRLPLS, the assay gave 5.0 nM (3 of 3 replicates; controls 1 of 9). With KSSQSVLYESRNKNSVA / WADTREK / QQYHPLPLS the result was 19 nM (3 of 3 replicates; controls 4 of 9). Variant KSSQRVLYESRNDNSVA / WANTRES / QQYHRLPLS showed 23 nM (3 of 3 replicates; controls 0 of 9). Variant KSSATVLYESRNKNSVA / WATTRES / QQYHRLPLS showed 26 nM (3 of 3 replicates; controls 2 of 9). Variant KSSQSVLYEQRNKNSVA / WAQTRES / QQYHRLPLS gave 39 nM (3 of 3 replicates; controls 1 of 9). For KSSQSWLYESRNKNSVA / WAETLES / QQYHRLPLS, the assay gave 48 nM (3 of 3 replicates; controls 2 of 9).

For KSSQSVLYESRNKNSVA / WAWTRDS / QQYHRLPLS, the assay gave 64 nM (3 of 3 replicates; controls 2 of 9). Variant KSSQSVLYESRNKNSVA / FAYTRES / QQYHRLPLS gave 110 nM (3 of 3 replicates; controls 2 of 9). With KESQSVLYESRNKNSVA / WACIRES / QQYHRLPLS the result was 190 nM (3 of 3 replicates; controls 6 of 9). Variant KSSQSVLYESSNKNSVA / RAETRES / QQYHRLPLS gave 280 nM (3 of 3 replicates; controls 4 of 9). With KSSQSVLYESRNANSVA / WAVTRES / QQFHRLPLS the result was 300 nM (3 of 3 replicates; controls 1 of 9). For KSSQSVLYESQNKNSRA / WADTRES / QQYHRLPLS, the assay gave 340 nM (1 of 3 replicates; controls 1 of 9).

With KSSQSVLYESRNKNSVA / WANGRES / RQYHRLPLS the result was 400 nM (3 of 3 replicates; controls 5 of 9). With KSSQSVLYESRNKNSVA / WALTRES / QQYDRLPLS the result was 680 nM (3 of 3 replicates; controls 0 of 9). Variant KSSQSVLYESREKNSVA / WTYTRES / QQYHRLPLS gave 1.4 µM (3 of 3 replicates; controls 2 of 9). With KSSQSFLYESRNKNSVA / WAETDES / QQYHRLPLS the result was 3.2 µM (2 of 3 replicates; controls 7 of 9). With KSSQSVLYESRNKNSVA / IATTRES / QQYHRLPLS the result was 3.3 µM (1 of 3 replicates; controls 2 of 9). Variant KSSQSVLYESRNKNSVA / WEGTRES / QPYHRLPLS gave 9.9 µM (2 of 3 replicates; controls 2 of 9).

Variant KSSQSVLYESRNKNSQA / WAQTRES / QQYHRLPLS showed 10 µM (1 of 3 replicates; controls 0 of 9). Variant ASSQSVLYESRNKNSVA / WAHTRES / QQYHRLPES showed 12 µM (2 of 3 replicates; controls 2 of 9). With KSSQSVLYESRKKNSVA / WAPTRES / QQYHRLPLS the result was 38 µM (3 of 3 replicates; controls 5 of 9). Variant KSSQSVLYESRNKNSVA / LATTRES / QQYHELPLS showed 49 µM (3 of 3 replicates; controls 4 of 9). Variant KSSQSVLAESRNKNSQA / WAMTRES / QQYHRLPLS gave 60 µM (2 of 3 replicates; controls 3 of 9). Variant KSSQYVLYESRNKNFVA / WAFTRES / QQYHRLPLS gave nd (0 of 3 replicates; controls 1 of 9).

With KSSQSVLGESRNKNSVA / WAPTRES / QQYHRLPLS the result was nd (0 of 3 replicates; controls 0 of 9). With KSSQSVLYESRNKNSYA / WANTRES / QQYHCLPLS the result was nd (0 of 3 replicates; controls 0 of 9). Variant KSSQSVGYESWNKNSVA / WAHTRES / QQYHRLPLS gave nd (0 of 3 replicates; controls 0 of 9). For KSSQSVLYESRNKNSGA / WAQTRES / QQYHRLVLS, the assay gave nd (0 of 3 replicates; controls 0 of 9). Variant KSSQSVLYESRNKNSVA / WAHTRES / QQYHRLPAS showed nd (0 of 3 replicates; controls 1 of 9). With KNSQSVLYESRNKNSVA / WAFTRES / QQYHRLPLS the result was nd (0 of 3 replicates; controls 2 of 9).

Variant KSSQSVLYESRNKNSKL / WAWTRES / QQYHRLPLS gave nd (0 of 3 replicates; controls 0 of 9). Variant KSSQSVLYESRNKNSVA / WAFTRCS / RQYHRLPLS showed nd (0 of 3 replicates; controls 0 of 9).

The last 4 entries again:

CDR-L1	CDR-L2	CDR-L3	apparent Kd	seen in	control signals
KSSQSVLYESRNKNSVA	WAHTRES	QQYHRLPAS	nd	0 of 3	1 of 9
KNSQSVLYESRNKNSVA	WAFTRES	QQYHRLPLS	nd	0 of 3	2 of 9
KSSQSVLYESRNKNSKL	WAWTRES	QQYHRLPLS	nd	0 of 3	0 of 9
KSSQSVLYESRNKNSVA	WAFTRCS	RQYHRLPLS	nd	0 of 3	0 of 9

For reference, the parent read 4.4 nM as the reference entry and 48 nM as a member of this library.

From the AlphaSeq antibody data of Engelhart et al. 2022 (doi:10.1038/s41597-022-01779-4), copy in the FLAb collection.